# Measurements reported in patent publication US6239129A, “Cyano-indole serotonin-reuptake inhibitor compounds” (Adir et Compagnie, priority 1999, dated 2001).
# By UniProt entry, the sequences of proteins in these tests, tags left out. Residues count along the entry.
# UniProt P28335, 33-458: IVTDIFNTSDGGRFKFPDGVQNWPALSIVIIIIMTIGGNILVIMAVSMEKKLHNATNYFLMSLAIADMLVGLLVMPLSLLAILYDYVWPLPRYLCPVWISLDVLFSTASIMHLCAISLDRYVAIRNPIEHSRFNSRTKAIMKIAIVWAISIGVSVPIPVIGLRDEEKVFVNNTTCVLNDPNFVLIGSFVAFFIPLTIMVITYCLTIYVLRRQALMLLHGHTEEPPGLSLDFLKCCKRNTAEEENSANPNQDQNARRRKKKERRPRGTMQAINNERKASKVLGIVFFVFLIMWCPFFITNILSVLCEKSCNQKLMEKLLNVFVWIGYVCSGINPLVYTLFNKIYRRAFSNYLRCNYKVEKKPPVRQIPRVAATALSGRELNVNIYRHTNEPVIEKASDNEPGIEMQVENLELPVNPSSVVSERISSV
# Target: 5-HT2c Receptors (Homo sapiens, UniProt P28335)
# Experiment: biochemical
# Format: binding
# Conditions: radioligand KD; pH=7.7, 22° C.; read-out: dissociation constant KD
# Description: The radioactivity retained on the filters is determined by liquid scintillation counting. The binding isotherms are analysed by non-linear regression to determine the IC50 values.
smiles,measurement,value
CN1C[C@@H](NS(=O)(=O)N(C)C)C[C@@H]2c3cccc4c3c(cn4C)C[C@H]21 [[^3 H]-mesulergine],Kd,0.54 nM
